Patent US20080051454A1, “Compositions and methods for transient receptor potential vanilloid (TRPV) channel mediated treatments” (The Board of Trustees Operating Michigan State University, priority 2006, published 2008)

Legend:
[1] = test system: Wistar rats fed a NS or HS diet for 10 days; test: MAP responses to i.v. CGRP in conscious rats (10-day diet); format: in vivo, rat; settings: CGRP 0.5 μg/kg iv
Description: Surgical Preparation Rats were anesthetized with ketamine and xylazine (80 and 4 mg/kg intraperitoneally, respectively) for cannulation or with urethane (1.5 g/kg intraperitoneally) for capsaicin administration. The left jugular vein, carotid and femoral artery were cannulated under anesthesia for injection of drugs or monitoring of mean arterial pressure (MAP) and heart rate (HR).
Protocol 2: To examine the role of TRPV1 or CGRP receptor as a depressor during HS intake, MAP responses to administration of capsaicin (10 and 30 μg/kg), a selective TRPV1 receptor agonist, or CGRP (0.5, 1, and 5 μg/kg) were determined in anesthetized or conscious rats fed a NS or HS diet. Each dose of injection was separated by a 30-minute interval. To determine the specificity of capsaicin, CAPZ (3 mg/kg) was administered 10 minutes before capsaicin injection in a separate group.

[2] = test system: Wistar rats fed a NS or HS diet for 3 weeks; test: MAP responses to i.v. CGRP in conscious rats (3-week diet); format: in vivo, rat
Description: Surgical Preparation The rats were anesthetized with ketamine and xylazine (80 and 4 mg/kg ip, respectively) for implantation of artery and vein catheters. The left jugular vein and carotid artery were cannulated for administration of drugs or for monitoring of mean arterial pressure (MAP) and heart rate (HR) with a Statham 231D pressure transducer coupled to a Gould 2400s recorder (Gould Instruments, Dayton, Ohio, USA). For conscious animal experiments, catheters were routed subcutaneously and exteriorized between the scapulae. Rats were quietly brought to home cages 3 hours after surgery, and MAP and HR were continuously recorded. Regular room light was turned on during experiments. The rats were allowed to acclimate to their surroundings for 15-30 minutes in their cages, i.e., until which time they ceased exploring the new environment and their blood pressures stabilized. Baseline MAP and HR were recorded for 15 minutes before administration of drugs (Supowit et al., 1997; Wang and Wang, 2004).
Protocol 2: To determine the role of the CGRP receptor in rats fed a HS diet, MAP responses to injection of CGRP (1 and 5 pg/kg bolus) were measured in conscious rats fed a NS or HS diet. Thirty minutes were allowed for stabilization of blood pressure between injections.

“CGRP: 37-amino acid peptide, calcitonin gene-related peptide” was tested, and the “decrease in MAP” value ([1]; HS) was 11±2 mmHg, the “decrease in MAP” value ([1]; NS) was 4±2 mmHg and the “reduction in MAP” value ([2]; CGRP 1 μg/kg, HS 3 weeks) was 19±3 mmHg. For the same substance, the “reduction in MAP” value ([2]; CGRP 1 μg/kg, NS 3 weeks) was 11±3 mmHg, the “reduction in MAP” value ([2]; CGRP 5 μg/kg, HS 3 weeks) was 43±3 mmHg and the “reduction in MAP” value ([2]; CGRP 5 μg/kg, NS 3 weeks) was 24±3 mmHg.
